Values quoted from earlier work in US8073633B2 (The Invention Science Fund I, LLC, priority 2008, dated 2011).
Where two headings read alike, the source gives them in different places.

Protein sequences, listed by entry. Tags and fused reporters are not part of them.
UniProt P10635, whole entry: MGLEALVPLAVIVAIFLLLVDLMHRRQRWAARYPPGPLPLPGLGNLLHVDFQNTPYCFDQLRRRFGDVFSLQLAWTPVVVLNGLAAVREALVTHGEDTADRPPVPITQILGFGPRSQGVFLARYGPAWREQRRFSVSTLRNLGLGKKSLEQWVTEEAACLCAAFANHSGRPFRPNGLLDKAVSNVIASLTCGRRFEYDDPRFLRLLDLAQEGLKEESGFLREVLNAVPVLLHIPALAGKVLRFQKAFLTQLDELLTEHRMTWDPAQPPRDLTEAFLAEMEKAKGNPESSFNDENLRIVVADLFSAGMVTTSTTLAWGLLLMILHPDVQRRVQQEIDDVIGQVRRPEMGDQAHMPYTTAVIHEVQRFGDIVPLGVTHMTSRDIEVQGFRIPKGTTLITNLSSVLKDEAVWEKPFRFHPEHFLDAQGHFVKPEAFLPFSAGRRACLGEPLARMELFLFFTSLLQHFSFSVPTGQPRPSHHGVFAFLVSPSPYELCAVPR
UniProt P05177, whole entry: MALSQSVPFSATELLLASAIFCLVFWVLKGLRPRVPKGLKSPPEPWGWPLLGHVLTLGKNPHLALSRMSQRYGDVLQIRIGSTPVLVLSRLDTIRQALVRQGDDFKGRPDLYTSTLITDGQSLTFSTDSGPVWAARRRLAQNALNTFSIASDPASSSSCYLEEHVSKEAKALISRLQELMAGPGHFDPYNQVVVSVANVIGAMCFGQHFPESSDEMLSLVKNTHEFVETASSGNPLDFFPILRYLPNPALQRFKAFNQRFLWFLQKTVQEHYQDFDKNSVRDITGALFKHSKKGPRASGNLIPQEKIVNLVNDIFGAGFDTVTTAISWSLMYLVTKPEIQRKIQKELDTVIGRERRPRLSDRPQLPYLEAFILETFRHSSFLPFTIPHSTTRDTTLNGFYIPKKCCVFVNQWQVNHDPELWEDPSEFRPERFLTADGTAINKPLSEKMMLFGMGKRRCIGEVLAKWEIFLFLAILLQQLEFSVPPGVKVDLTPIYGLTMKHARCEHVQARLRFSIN
UniProt P11712, whole entry: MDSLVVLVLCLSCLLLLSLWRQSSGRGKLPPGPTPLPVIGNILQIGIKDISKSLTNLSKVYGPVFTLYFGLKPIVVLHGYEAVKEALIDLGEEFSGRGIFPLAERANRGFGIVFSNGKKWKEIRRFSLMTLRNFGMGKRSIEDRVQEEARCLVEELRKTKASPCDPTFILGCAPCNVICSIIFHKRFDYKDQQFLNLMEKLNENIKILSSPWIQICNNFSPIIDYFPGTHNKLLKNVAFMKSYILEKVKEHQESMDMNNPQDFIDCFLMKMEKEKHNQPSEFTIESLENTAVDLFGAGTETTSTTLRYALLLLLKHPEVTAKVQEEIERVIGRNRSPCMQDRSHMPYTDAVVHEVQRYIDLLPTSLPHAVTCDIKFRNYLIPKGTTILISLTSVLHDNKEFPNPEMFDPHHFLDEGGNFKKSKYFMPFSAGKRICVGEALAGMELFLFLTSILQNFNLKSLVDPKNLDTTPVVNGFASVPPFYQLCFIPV

Legend:
CYP2D6 [1] = molecular target: T1, CYP2D6 (Homo sapiens, UniProt P10635)
CYP1A2 = CYP1A2 (Homo sapiens, UniProt P05177); conditions: liver microsomes
CYP2C9 = molecular target: T2, CYP2C9 (Homo sapiens, UniProt P11712); conditions: liver microsomes
T2 construct: in human liver microsomes, the specific CYP contributions to total N-demethylation activity vary between individuals; from tissue; host or cells: human liver microsomes from different individuals

CYP2D6 [2] = molecular target: T1, CYP2D6; design: in human liver microsomes, the specific CYP contributions to total N-demethylation activity vary between individuals; from tissue; host or cells: human liver microsomes from different individuals; conditions: liver microsomes

specific activity in N-demethylation of diphenhydramine (CYP2D6 [1]): 0.69 pmol/min/pmol P450
% Total Diphenhydramine N-demethylation Activity, CYP1A2 (CYP1A2; pooled): 14.2%
% Total Diphenhydramine N-demethylation Activity, CYP1A2 (CYP1A2; subject HG30): 31.6%
% Total Diphenhydramine N-demethylation Activity, CYP1A2 (CYP1A2; subject HG66): 4.1%
% Total Diphenhydramine N-demethylation Activity, CYP1A2 (CYP1A2; subject HG89): 36.0%
% Total Diphenhydramine N-demethylation Activity, CYP1A2 (CYP1A2; subject HG112): 4.2%
% Total Diphenhydramine N-demethylation Activity, CYP2C9 (CYP2C9; pooled): 27.5%
% Total Diphenhydramine N-demethylation Activity, CYP2C9 (CYP2C9; subject HG30): 45.9%
% Total Diphenhydramine N-demethylation Activity, CYP2C9 (CYP2C9; subject HG66): 13.4%
% Total Diphenhydramine N-demethylation Activity, CYP2C9 (CYP2C9; subject HG89): 32.1%
% Total Diphenhydramine N-demethylation Activity, CYP2C9 (CYP2C9; subject HG112): 35.8%
% Total Diphenhydramine N-demethylation Activity, CYP2D6 (CYP2D6 [2]; pooled): 48.4%
% Total Diphenhydramine N-demethylation Activity, CYP2D6 (CYP2D6 [2]; subject HG30): 0%
% Total Diphenhydramine N-demethylation Activity, CYP2D6 (CYP2D6 [2]; subject HG66): 81.3%
% Total Diphenhydramine N-demethylation Activity, CYP2D6 (CYP2D6 [2]; subject HG89): 4.6%
% Total Diphenhydramine N-demethylation Activity, CYP2D6 (CYP2D6 [2]; subject HG112): 12.1%
Compound: CN(C)CCOC(c1ccccc1)c1ccccc1 [diphenhydramine]
